Membrane permeability of cyclic peptides

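Conditions beyond the assay type are not listed; see the original paper. Other peptides of the study may be missing here. Entries at the database's floor value (log10 P of -10) are not listed.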

PAMPA measures passive passage through an artificial lipid membrane.
P is given in units of 10^-6 cm/s (from log10 values with two decimals); larger means faster passage.

| SMILES | PAMPA (10^-6 cm/s) |
|---|---|
| CCC[C@@H]1NC(=O)[C@H](CC(C)C)N(C)C(=O)[C@H](CC(C)C)N(C)C(=O)[C@H](CC(C)C)N(C)C(=O)[C@H](CC(C)C)N(C)C(=O)[C@@H](C)NC(=O)[C@H](CCC(N)=O)NC(=O)[C@H](CC(C)C)N(C)C(=O)[C@H](C(C)C)NC(=O)CN(Cc2ccccc2)C(=O)CN(C)C1=O | 0.0089 |
| CCC[C@@H]1NC(=O)[C@H](CC(C)C)N(C)C(=O)[C@H](CC(C)C)N(C)C(=O)[C@H](CC(C)C)N(C)C(=O)[C@H](CC(C)C)N(C)C(=O)[C@@H](C)NC(=O)[C@H](CCC(N)=O)NC(=O)[C@H](CC(C)C)N(C)C(=O)[C@H](C(C)C)NC(=O)CN(C)C(=O)CN(C)C1=O | 0.013 |
| CCC[C@@H]1NC(=O)[C@H](CC(C)C)N(C)C(=O)[C@H](CC(C)C)N(C)C(=O)[C@H](CC(C)C)N(C)C(=O)[C@H](CC(C)C)N(C)C(=O)[C@@H](C)NC(=O)[C@H](CCC(N)=O)NC(=O)[C@H](CC(C)C)N(C)C(=O)[C@H](C(C)C)NC(=O)CN(CCOC)C(=O)CN(C)C1=O | 0.0089 |
| CCC[C@@H]1NC(=O)[C@H](CC(C)C)N(C)C(=O)[C@H](CC(C)C)N(C)C(=O)CN(CCO)C(=O)[C@H](CC(C)C)N(C)C(=O)[C@@H](C)NC(=O)[C@H](CCC(N)=O)NC(=O)[C@H](CC(C)C)N(C)C(=O)[C@H](C(C)C)NC(=O)[C@H](CC(C)C)N(C)C(=O)CN(C)C1=O | 0.0089 |
| CCC[C@@H]1NC(=O)[C@H](CC(C)C)N(C)C(=O)[C@H](CC(C)C)N(C)C(=O)[C@H](CC(C)C)N(C)C(=O)[C@H](CC(C)C)N(C)C(=O)[C@@H](C)NC(=O)[C@H](CCC(N)=O)NC(=O)[C@H](CC(C)C)N(C)C(=O)[C@H](C(C)C)NC(=O)CN(CC(C)C)C(=O)CN(C)C1=O | 0.013 |
| CCC[C@@H]1NC(=O)[C@H](CC(C)C)N(C)C(=O)[C@H](CC(C)C)N(C)C(=O)CN(CCOC)C(=O)[C@H](CC(C)C)N(C)C(=O)[C@@H](C)NC(=O)[C@H](CCC(N)=O)NC(=O)[C@H](CC(C)C)N(C)C(=O)[C@H](C(C)C)NC(=O)[C@H](CC(C)C)N(C)C(=O)CN(C)C1=O | 0.006 |
| CCC[C@@H]1NC(=O)[C@H](CC(C)C)N(C)C(=O)[C@H](CC(C)C)N(C)C(=O)[C@H](CC(C)C)N(C)C(=O)CN(Cc2ccccc2)C(=O)[C@@H](C)NC(=O)[C@H](CCC(N)=O)NC(=O)[C@H](CC(C)C)N(C)C(=O)[C@H](C(C)C)NC(=O)[C@H](CC(C)C)N(C)C(=O)CN(C)C1=O | 0.01 |
| CCC[C@@H]1NC(=O)[C@H](CC(C)C)N(C)C(=O)[C@H](CC(C)C)N(C)C(=O)[C@H](CC(C)C)N(C)C(=O)CN(CCC(=O)O)C(=O)[C@@H](C)NC(=O)[C@H](CCC(N)=O)NC(=O)[C@H](CC(C)C)N(C)C(=O)[C@H](C(C)C)NC(=O)[C@H](CC(C)C)N(C)C(=O)CN(C)C1=O | 0.0019 |
| CCC[C@@H]1NC(=O)[C@H](CC(C)C)N(C)C(=O)[C@H](CC(C)C)N(C)C(=O)CN(CC(C)C)C(=O)[C@H](CC(C)C)N(C)C(=O)[C@@H](C)NC(=O)[C@H](CCC(N)=O)NC(=O)[C@H](CC(C)C)N(C)C(=O)[C@H](C(C)C)NC(=O)[C@H](CC(C)C)N(C)C(=O)CN(C)C1=O | 0.0089 |
| CCC[C@@H]1NC(=O)[C@H](CC(C)C)N(C)C(=O)[C@H](CC(C)C)N(C)C(=O)[C@H](CC(C)C)N(C)C(=O)CN(CCOC)C(=O)[C@@H](C)NC(=O)[C@H](CCC(N)=O)NC(=O)[C@H](CC(C)C)N(C)C(=O)[C@H](C(C)C)NC(=O)[C@H](CC(C)C)N(C)C(=O)CN(C)C1=O | 0.014 |
| CCC[C@@H]1NC(=O)[C@H](CC(C)C)N(C)C(=O)[C@H](CC(C)C)N(C)C(=O)[C@H](CC(C)C)N(C)C(=O)CN(C)C(=O)[C@@H](C)NC(=O)[C@H](CCC(N)=O)NC(=O)[C@H](CC(C)C)N(C)C(=O)[C@H](C(C)C)NC(=O)[C@H](CC(C)C)N(C)C(=O)CN(C)C1=O | 0.018 |
| CCC[C@@H]1NC(=O)[C@H](CC(C)C)N(C)C(=O)[C@H](CC(C)C)N(C)C(=O)[C@H](CC(C)C)N(C)C(=O)CN(CCCCN)C(=O)[C@@H](C)NC(=O)[C@H](CCC(N)=O)NC(=O)[C@H](CC(C)C)N(C)C(=O)[C@H](C(C)C)NC(=O)[C@H](CC(C)C)N(C)C(=O)CN(C)C1=O | 0.006 |

2 of these entries, quoted again:

SMILES	PAMPA (10^-6 cm/s)
CCC[C@@H]1NC(=O)[C@H](CC(C)C)N(C)C(=O)[C@H](CC(C)C)N(C)C(=O)[C@H](CC(C)C)N(C)C(=O)CN(CCOC)C(=O)[C@@H](C)NC(=O)[C@H](CCC(N)=O)NC(=O)[C@H](CC(C)C)N(C)C(=O)[C@H](C(C)C)NC(=O)[C@H](CC(C)C)N(C)C(=O)CN(C)C1=O	0.014
CCC[C@@H]1NC(=O)[C@H](CC(C)C)N(C)C(=O)[C@H](CC(C)C)N(C)C(=O)[C@H](CC(C)C)N(C)C(=O)CN(CCCCN)C(=O)[C@@H](C)NC(=O)[C@H](CCC(N)=O)NC(=O)[C@H](CC(C)C)N(C)C(=O)[C@H](C(C)C)NC(=O)[C@H](CC(C)C)N(C)C(=O)CN(C)C1=O	0.006

Data: CycPeptMPDB; original report Lee et al. 2022, doi:10.1016/j.bmc.2022.116862.